Assays:
Paraoxonase, or PON1 = Paraoxonase, or PON1 (Homo sapiens, UniProt P27169); conditions: cited from earlier work
OPD [1] = target: T1, OPD (Sphingobium fuliginis, UniProt P0A433); experiment: Kinetic analysis of purified OPD with OP substrates (initial rates); conditions: for kcat OPD: 50 mM Tris-HCl pH 8.0 at 25° C.; for Km: read-out: Km OPD, 50 mM Tris-HCl pH 8.0 at 25° C.
ePHP = ePHP (Escherichia coli, UniProt P45548); conditions: cited from earlier work
OpdA [2] = target: T2, OpdA (Agrobacterium tumefaciens, UniProt Q93LD7); experiment: Kinetic analysis of purified OpdA with OP substrates (initial rates); conditions: for kcat OpdA: 50 mM Tris-HCl pH 8.0 at 25° C.; for Km: read-out: Km OpdA, 50 mM Tris-HCl pH 8.0 at 25° C.
OpdA1 = OpdA1 (Agrobacterium tumefaciens, UniProt Q93LD7, A170S/P134S/P42S/S237G); experiment: Kinetics of purified mutant OpdA1 against aliphatic OPs; conditions: for Km: read-out: Km OpdA1
OpdA2 = OpdA2 (Agrobacterium tumefaciens, UniProt Q93LD7, A119D); experiment: Kinetics of purified mutant OpdA2 against aliphatic OPs; conditions: for Km: read-out: Km OpdA2
[3] = tested on: E. coli DH10β (pBluescript) cell-free extract; experiment: Coumaphos hydrolytic activity of cell-free extracts, vector-only control; conditions: vector alone
[4] = tested on: E. coli DH10β (p65) cell-free extract; experiment: Coumaphos hydrolytic activity of cell-free extracts, fluorimetric assay; conditions: 15 μg protein
OPD [5] = target: T1, OPD; experiment: Thin layer chromatography check of substrate hydrolysis by OPD over 24 hours; conditions: 0.4 mM substrate, 24 hour period
OpdA [6] = target: T2, OpdA; experiment: Thin layer chromatography check of substrate hydrolysis by OpdA over 24 hours; conditions: 0.4 mM substrate, 24 hour period
A. radiobacter P230 = experiment: Parathion hydrolytic activity of P230 cultures (p-nitrophenol formation at 405 nm); conditions: 880 μM parathion in assay
[7] = tested on: aryldialkylphosphatase (ADPase); conditions: ADPase versus OPD; cited from earlier work

Sequences of proteins named here, by UniProt entry; tags and fusion partners are left off. A change or cut given only in a name is not applied to a line headed by its entry.
UniProt P27169: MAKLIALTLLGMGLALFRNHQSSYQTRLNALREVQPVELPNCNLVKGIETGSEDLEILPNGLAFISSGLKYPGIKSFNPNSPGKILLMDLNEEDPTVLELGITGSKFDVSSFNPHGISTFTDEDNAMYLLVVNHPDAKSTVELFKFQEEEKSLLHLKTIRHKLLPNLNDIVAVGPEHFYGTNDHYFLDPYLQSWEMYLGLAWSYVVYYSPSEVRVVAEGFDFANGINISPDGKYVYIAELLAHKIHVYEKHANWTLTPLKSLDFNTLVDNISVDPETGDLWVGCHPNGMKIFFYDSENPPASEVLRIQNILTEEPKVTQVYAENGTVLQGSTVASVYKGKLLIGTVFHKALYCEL
UniProt P45548: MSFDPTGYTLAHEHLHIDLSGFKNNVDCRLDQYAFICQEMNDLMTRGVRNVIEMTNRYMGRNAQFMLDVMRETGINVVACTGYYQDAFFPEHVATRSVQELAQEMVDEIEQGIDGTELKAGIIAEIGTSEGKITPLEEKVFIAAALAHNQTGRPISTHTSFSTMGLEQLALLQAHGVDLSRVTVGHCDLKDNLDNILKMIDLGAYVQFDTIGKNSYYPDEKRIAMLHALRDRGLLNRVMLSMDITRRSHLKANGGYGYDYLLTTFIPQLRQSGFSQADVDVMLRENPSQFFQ

Compound | hydrolysis of substrate by OPD (in words) (OPD [1]) | kcat OPD (OPD [1]) [s⁻¹] | Km (OPD [1]) [µM] | hydrolysis of substrate by OpdA (in words) (OpdA [2]) | kcat OpdA (OpdA [2]) [s⁻¹] | Km (OpdA [2]) [µM] | also measured
CCOP(=O)(OCC)Oc1ccc([N+](=O)[O-])cc1 | able to hydrolyse | 0.767 | 225 | able to hydrolyse | 0.558 | 242 | specificity constant (Paraoxonase, or PON1): around 10^6 M^−1 sec^−1; phosphotriesterase activity in ePHP crude lysates (ePHP): No activity
CCOC(=O)CC(SP(=O)(OC)OC)C(=O)OCC (centres unmarked) |  |  |  |  |  |  | kcat OpdA1 (OpdA1): 0.033 s⁻¹; Km (OpdA1): 159 µM; kcat OpdA2 (OpdA2): 0.0307 s⁻¹; Km (OpdA2): 45.7 µM
CCOP(=S)(OCC)Oc1ccc2c(C)c(Cl)c(=O)oc2c1 | able to hydrolyse | 0.235 | 21.4 | able to hydrolyse | 0.207 | 8.3 | Coumaphos hydrolytic activity [3]: 0.78 ± 0.04 nmol/min/mg protein; Coumaphos hydrolytic activity [4]: 3.30 ± 0.07 nmol/min/mg protein
CC(=O)Oc1ccc([N+](=O)[O-])cc1 |  |  |  |  |  |  | phosphotriesterase activity in ePHP crude lysates (ePHP): No activity
CCOP(=O)(OCC)Oc1ccc2c(C)c(Cl)c(=O)oc2c1 | able to hydrolyse | 0.658 | 25.3 | able to hydrolyse | 0.378 | 15.9 | 
COP(=S)(OC)Oc1ccc(SC)c(C)c1 | unable to hydrdolyse |  |  |  | 0.0272 | 149 | hydrolysis by OPD seen by thin layer chromatography (OPD [5]): no hydrolysis; hydrolysis by OpdA seen by thin layer chromatography (OpdA [6]): consistently observed
COP(=S)(OC)Oc1ccc([N+](=O)[O-])cc1 | able to hydrolyse | 0.091 | 32.9 | able to hydrolyse | 1.57 | 61.2 | 
COP(=O)(OC)Oc1ccc2c(C)cc(=O)oc2c1 | able to hydrolyse | 0.342 | 46.7 | able to hydrolyse | 1.36 | 66 | 
bis(p-nitrophenyl) phosphate |  |  |  |  |  |  | phosphotriesterase activity in ePHP crude lysates (ePHP): No activity
CCOP(=S)(OCC)Oc1cc(C)nc(C(C)C)n1 | able to hydrolyse | 0.942 | 54.2 | able to hydrolyse | 1.09 | 51.9 | 
CCOC(=O)CC(SP(=S)(OC)OC)C(=O)OCC (centres unmarked) |  |  |  |  |  |  | kcat OpdA1 (OpdA1): 0.0202 s⁻¹; Km (OpdA1): 33.3 µM; kcat OpdA2 (OpdA2): 0.0238 s⁻¹; Km (OpdA2): 40.9 µM
p-nitrophenyl phosphate |  |  |  |  |  |  | phosphotriesterase activity in ePHP crude lysates (ePHP): No activity
CCOP(=S)(OCC)Oc1nc(Cl)c(Cl)cc1Cl | able to hydrolyse | 0.015 | 47.2 | able to hydrolyse | 0.00875 | 32.6 | 
CCOP(=S)(OCC)Oc1ccc([N+](=O)[O-])cc1 | able to hydrolyse | 0.392 | 50.6 | able to hydrolyse | 0.365 | 92.6 | Parathion hydrolytic activity (A. radiobacter P230; P230 culture grown in the absence of parathion to OD 595 nm 0.280): 3.13 ± 0.07 μmol/min/mg protein; Parathion hydrolytic activity (A. radiobacter P230; P230 culture grown in the presence of parathion to OD 595 nm 0.280): 3.36 ± 0.18 μmol/min/mg protein; turnover number, fold lower than that reported for OPD [7]: 4500 fold
CNC(=O)CSP(=S)(OC)OC |  |  |  |  |  |  | kcat OpdA1 (OpdA1): 0.0203 s⁻¹; Km (OpdA1): 78.9 µM; kcat OpdA2 (OpdA2): 0.0233 s⁻¹; Km (OpdA2): 14.3 µM
COP(=S)(OC)SCN1C(=O)c2ccccc2C1=O | unable to hydrdolyse |  |  |  | 0.00167 | 208 | hydrolysis by OPD seen by thin layer chromatography (OPD [5]): no hydrolysis; hydrolysis by OpdA seen by thin layer chromatography (OpdA [6]): consistently observed

Source: patent US8293244B2, “Phosphotriesterase from agrobacterium radiobacter p230” (dated 2012)
